# Yeast mating assay B: variants of the scFv Ab-14

Target peptide (SARS-CoV-2 spike, HR2 region): PDVDLGDISGINAS

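This is the validation round: designs drawn from the data on random variants, tested in the same kind of assay. Their group label is 14H_GPLM_Gen (GPLM: also part of the Gaussian process libraries; Gen: genetic algorithm; a sequence that several methods proposed may carry one label only). Affinity was read by AlphaSeq, a pooled yeast mating assay with surface-displayed partners. The frequency of each diploid, read from paired DNA barcodes, reflects how well the two displayed proteins bind. Each replicate has its own calibration line, from reference interactions of the BCL2 family. There are six technical replicates.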

The variants keep the light chain, the linker and the frameworks of Ab-14 (scFv order VH, three GGGGS repeats, VL).
VH: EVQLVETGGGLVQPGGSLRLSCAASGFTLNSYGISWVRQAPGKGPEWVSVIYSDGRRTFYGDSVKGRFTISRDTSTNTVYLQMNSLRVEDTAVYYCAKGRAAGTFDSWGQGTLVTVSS
VL: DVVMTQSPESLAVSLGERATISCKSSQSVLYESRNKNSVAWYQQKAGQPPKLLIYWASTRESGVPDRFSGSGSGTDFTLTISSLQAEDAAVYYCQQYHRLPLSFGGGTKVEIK

The parent's heavy chain CDRs are GFTLNSYGIS, VIYSDGRRTFYGDSVK, GRAAGTFDS; each variant's own CDRs replace them letter for letter. Numbers give log10(Kd / nM), so 0 is 1 nM and 3 is 1 µM. Smaller is tighter. Where no diploid with the target was found in that replicate, the entry reads "nd": below detection, most likely a poor binder, though not proof of it. Of ten entries with the parent sequence, four were seen in most replicates (averages 0.34 to 2.37), three in one and three in none, so single entries are noisy. The authors' rule: three or more of the six replicates give a measured affinity, fewer mean a poor binder. Values of this round are not directly comparable with the first-round values of the same sequences. Background: pairings of all heavy chain designs with three empty control strains gave a value in 1% of cases (median 2.08, 5th percentile 0.84). Values in that range, when seen in few replicates, are hard to tell from nonspecific mating. The control count says in how many pairings with the empty strains this scFv gave a signal, with their mean in brackets.

CDR-H1	CDR-H2	CDR-H3	log10 Kd, replicates	signal with controls
GFSLNSYGIS	VIYSDGRRTFYADSVK	GEAAGTFDK	0.87 0.87 2.06 0.72 0.67 0.67	0 of 18
GFTLDSYGIS	VIYSDGRRTFYGDSVK	GRTAGTFDS	1.88 1.02 1.08 1.90 1.41 1.39	0 of 18
GFDLNSYGIS	VIYSDGRRTFYGDQVK	GKAAGTFDS	0.76 0.40 0.52 0.19 0.10 0.40	1 of 18 (2.04)
GFSLNSYGIS	VIYSDGRRTFYGDRVK	GQTAGTFDS	nd 0.75 nd nd nd nd	0 of 18
GFDLNSYGIS	VIYSDGRRTFYSDSVK	GRLAGTFDS	-0.74 -0.68 -0.41 -0.50 -0.82 -0.33	0 of 18
GFTLNSYGIS	VIYSDGRRTFYKDSVK	GQAAGTFDL	1.20 2.62 2.24 1.97 2.34 2.50	0 of 18
GFHLNSYGIS	VIYSDGRRTFYADSVK	GEAAGTFDS	0.47 0.33 -0.10 0.28 0.37 0.07	1 of 18 (2.25)
GFSLNKYGIS	VIYSDGRRTFYGDSVK	GRTAGTFDS	0.72 0.83 1.11 0.91 1.07 1.20	0 of 18
GFSLNSYGIS	VIYSDGRRTFYGDDVK	GQAAGTFDS	0.65 0.05 0.75 0.47 0.30 0.73	0 of 18
GFSLNSYGIS	VIYSDGRRTFYVDDVK	GRTAGTFDS	0.68 0.80 0.92 0.35 0.91 0.21	0 of 18
GFSLNSYGIS	VIYSDGRRTFYADRVK	GKAAGTFDS	1.08 nd 0.77 1.14 3.03 1.35	0 of 18
GFDLNQYGIS	VIYSDGRRTFYGDSVK	GEAAGTFDS	0.32 0.10 0.51 -0.02 0.11 0.10	3 of 18 (2.38)
GFELNEYGIS	VIYSDGRRTFYGDSVK	GRTAGTFDT	0.11 0.46 -0.42 0.16 -0.17 -0.82	0 of 18
GFVLNSYGIS	VIYSDGRRTFYGDSVK	GEAAGTFDS	nd nd nd nd nd 0.82	0 of 18
GFELNEYGIS	VIYSDGRRTFYADSVK	GRAAGTFDS	0.08 0.94 0.32 0.09 0.24 0.11	1 of 18 (3.03)
GFNLNSYGIS	VIYSDGRRTFYVDSVK	GQAAGTFDS	nd nd nd nd nd nd	0 of 18
GFSLNSYGIS	VIYSDGKRTFYGDSVK	GKTAGTFDS	0.65 0.13 1.03 0.15 0.29 0.03	0 of 18
GFSLNSYGIS	VIYSDGRRTFYIDSVK	GQTAGTFDS	1.20 0.80 0.78 0.68 0.05 1.45	0 of 18
GFTLNSYGIS	VIYADGRRTFYGDSVK	GQAAGTFDS	nd nd nd 0.37 0.33 nd	0 of 18
GFTLNSYGIS	VIYSDGRRTFYSDSVK	GNAAGTFDS	0.89 0.76 0.72 1.07 0.52 1.64	0 of 18
GFTLNSYGIS	VIYSDGRRTFYGDSVK	GEEAGTFDT	0.89 0.91 1.84 1.83 nd 1.44	0 of 18
GFWLNEYGIS	VIYSDGRRTFYGDSVK	GKAAGTFDT	nd 0.06 0.82 0.16 0.90 1.17	0 of 18
GFSLNSYGIS	VIYSDGRRTFYADSVK	GVAAGTFDS	0.26 0.31 0.59 0.05 0.51 0.21	0 of 18
GFSLNSYGIS	VIYSDGRRTFYKDSVK	GQEAGTFDS	0.59 -0.18 0.09 -0.01 0.13 0.31	0 of 18
KFDLNSYGIS	VIYSDGRRTFYGDSVK	GEAAGTFDS	1.96 1.80 1.59 2.02 2.97 2.74	0 of 18
GFTLNSYGIS	VIYSDGQRTFYADSVK	GRTAGTFDS	0.95 0.38 0.77 nd 1.80 -0.18	0 of 18
GFSLNCYGIS	VIYSDGRRTFYGDSVK	GRTAGTFDS	nd nd nd nd 1.83 1.11	0 of 18
GFSLNSYGIS	VIYSDGRRTFYGDQVK	GKTAGTFDS	nd nd nd nd nd nd	0 of 18
GFSLNSYGIS	VIYSDGRRTFYADMVK	GRTAGTFDS	0.14 nd 0.44 0.60 0.72 0.99	0 of 18
GFDLNSYGIS	VIYSDGRRTFYMDSVK	GQAAGTFDS	0.86 1.57 0.31 0.68 0.61 0.46	0 of 18
GESLNSYGIS	VIYSDGRRTFYGDSVK	GRTAGTFDS	0.29 -0.02 -0.29 -0.11 -0.47 0.32	0 of 18
GFSLNDYGIS	VIYSDGRRTFYADSVK	GKAAGTFDS	0.24 -0.01 0.41 0.56 0.33 0.30	1 of 18 (2.31)
GFSLNNYGIS	VIYSDGRRTFYGDSVK	GRTAGTFDK	0.77 0.63 0.60 -0.02 0.25 0.53	0 of 18
GFVLNSYGIS	VIYSDGRRTFYADSVK	GQAAGTFDS	1.82 1.21 1.01 1.59 2.08 1.24	0 of 18

The first 2 variants above that were never detected:

CDR-H1	CDR-H2	CDR-H3	log10 Kd, replicates	signal with controls
GFNLNSYGIS	VIYSDGRRTFYVDSVK	GQAAGTFDS	nd nd nd nd nd nd	0 of 18
GFSLNSYGIS	VIYSDGRRTFYGDQVK	GKTAGTFDS	nd nd nd nd nd nd	0 of 18

From the AlphaSeq antibody data of Li et al. 2023 (doi:10.1038/s41467-023-39022-2), copy in the FLAb collection.